High-throughput results as filed in PubChem.
NRP1-CendR mod = NRP-1/CendR interaction modulation | 0.85% of 360,000 active | O14786 | inhibition, % at 25 µM | AID 602438 | FAM-RPARPAR peptide binding to NRP-1, fluorescence polarization;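 active = inhibition or corrected inhibition above about 18%, plus a signal ratio from 0.5 to 1.5, limit read from the data, passing the limit was not always enough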
Yeast UUG start-1 = yeast start codon fidelity modulation; AID 602363; activity score, % at 18.7 µM; S. cerevisiae UUG-firefly luciferase reporter, luminescence/redox ratio; 0.13% of 350,000 active;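 active means replicate mean at a twofold rise or more, about +100% in these data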;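 further: firefly luciferase made from a UUG start codon reports start codon fidelity; reporter light over untreated wells divided by growth signal over untreated wells; some hits fall short of that in this replicate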
MC4R ag barr = activates human MC4R beta-arrestin recruitment; 0.98% of 360,000 active; activation, % at 8.9 µM; U2OS MC4R beta-arrestin complementation, luminescence; percent of melanotan II response, DMSO zero; P32245;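 active = activation above a per-plate cutoff, the mean activation of sample wells on that plate plus 3 SD, cut at about 8% in these data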
ARFGAP1 inh = inhibitors of rat ARFGAP1; Arfgap1-stimulated ARF1 GTP hydrolysis, GDP FP detection; 0.26% of 360,000 active; AID 651572; inhibition, % at 16.5 µM;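 active = inhibition above a per-plate limit, mean inhibition of low control wells plus 3 SD, cut at about 25% in these data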
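Replicates: Single well per compound | Assay system: Truncated rat Arfgap1 GAP domain | Control set: No-Arfgap1 wells (100%) versus DMSO full-reaction wells (0%) | Times: Enzyme reaction 120 min at 25 °C after 20 min preincubation | Reagent: Human ARF1(Δ1-17)-GTP substrate | Measured by: Tracer-displacement fluorescence polarization with EDTA stop, 620/688 nm | Measure: Percent inhibition of Arfgap1-stimulated GTP hydrolysis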
ASAP1 inh = inhibitors of human ASAP1 ArfGAP activity; Q9ULH1; inhibition, % at 16.5 µM; 0.19% of 360,000 active; ASAP1-stimulated ARF1 GTP hydrolysis, GDP FP detection; in the data active = inhibition above about 25%
MC4R antag cAMP = blocks human MC4R cAMP signaling; AID 540295; MC4R-expressing cells, MTII-stimulated cAMP, LANCE TR-FRET; inhibition, % at 6.5 µM; 0.48% of 360,000 active; P32245;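 active = inhibition above its plate's cutoff, the mean of tested wells on that plate plus 3 SD, cut at about 29% in these data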
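Material: U2OS-MC4R stable cell line | Reagent: Melanotan II challenge after compound preincubation | Doses: One concentration, 6.5 µM nominal | Incubation: 30-min compound preincubation, 1-h Melanotan II challenge, 1-h detection, room temperature | Signal: TR-FRET cAMP assay | Replicates: One well per compound, no replicates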
Yeast UUG start-2 = yeast start codon fidelity modulation | activation, % at 38 µM | shares compounds with Yeast UUG start-1 | 540 tested, under 10 active | S. cerevisiae UUG-start firefly luciferase, luminescence, 4 h; 100% means double the DMSO signal;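 active = signal increase whose fitted curve reaches an absolute level of 40 at a concentration under 10 µM; inactive = activity opposite to the expected increase, or the rest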
A number is an active result; . = inactive; / = not tested or not shown. Most compounds without a hit are left out; they make up all but 2.3% or so of the library.

SMILES	NRP1-CendR mod	Yeast UUG start-1	MC4R ag barr	ARFGAP1 inh	ASAP1 inh	MC4R antag cAMP	Yeast UUG start-2
CC1CCN(C(=O)Cn2cc(C#N)c3ccccc32)CC1	.	.	.	.	.	.	/
CC1CCN(C(=O)Cn2cc(C(=O)C3CC3)c3ccccc32)CC1	.	.	.	.	.	.	.
O=C(Cn1cc(C(=O)c2cccs2)c2ccccc21)NCC1CCCO1 (stereo unspecified)	.	.	.	.	.	.	.
Cc1cc(SCC(=O)NCC2CCCO2)nc2ccccc12 (stereo unspecified)	.	146	.	.	.	.	.
O=Cc1cn(CC(=O)NCC2CCCO2)c2ccccc12 (stereo unspecified)	.	.	.	.	.	.	/
CCN(CC)C(=O)C(=O)c1cn(CC(=O)NCC2CCCO2)c2ccccc12 (stereo unspecified)	.	/	.	.	.	.	/
O=C(Cn1cc(C(=O)C2CCCCC2)c2ccccc21)NCC1CCCO1 (stereo unspecified)	.	.	.	.	.	.	.
CCN(C[C@H]1[C@@H](c2ccccc2)[C@@H](CO)N1C(C)=O)C(=O)c1ccccn1	/	127	/	/	/	/	.
CC(=O)N(C)C[C@@H]1Oc2cc(-c3cccc(C#N)c3)ccc2S(=O)(=O)N([C@@H](C)CO)C[C@H]1C	/	.	/	/	/	/	/
C[C@H]1CN([C@@H](C)CO)S(=O)(=O)c2ccc(-c3cccc(C(=O)N(C)C)c3)cc2O[C@@H]1CN(C)C(=O)Nc1ccc(F)cc1	/	111	/	/	/	/	.
COc1cccc(-c2ccc3c(c2)O[C@H](CN(C)Cc2cncnc2)[C@@H](C)CN([C@@H](C)CO)S3(=O)=O)c1	/	.	/	/	/	/	/
CC(=O)N(C)C[C@@H]1Oc2cc(Br)ccc2S(=O)(=O)N([C@@H](C)CO)C[C@@H]1C	/	63	/	/	/	/	.
C[C@H]1CN([C@@H](C)CO)S(=O)(=O)c2ccc(-c3cccc(C(=O)N(C)C)c3)cc2O[C@H]1CN(C)C(=O)Nc1ccc(F)cc1	/	.	/	/	/	/	/
CC(=O)N(C)C[C@@H]1Oc2cc(-c3cccc(C#N)c3)ccc2S(=O)(=O)N([C@H](C)CO)C[C@H]1C	/	66	/	/	/	/	.
COc1cccc(-c2ccc3c(c2)O[C@@H](CN(C)Cc2ccncc2)[C@@H](C)CN([C@H](C)CO)S3(=O)=O)c1	/	166	/	/	/	/	.
C[C@@H]1CN([C@H](C)CO)C(=O)Cc2cc(NC(=O)Cc3ccccc3)ccc2O[C@@H]1CN(C)Cc1ccncc1	/	.	/	/	/	/	/
C[C@H](CO)N1C[C@H](C)[C@H](CN(C)S(=O)(=O)c2cn(C)cn2)Oc2ccc(NS(=O)(=O)c3cccs3)cc2CC1=O	/	.	/	/	/	/	/
COCC(=O)N1CC[C@@H]2[C@H](CO)Nc3ccc(-c4ccc(C#N)cc4)cc3[C@@H]21	/	.	/	/	/	/	/
C[C@@H]1CN([C@@H](C)CO)C(=O)c2cc(-c3cccnc3)cnc2O[C@H]1CN(C)C	/	.	/	/	/	/	/
Cn1cnc(S(=O)(=O)N[C@H]2CC[C@H](CC(=O)Nc3ccc(-c4ccccc4)cc3)O[C@H]2CO)c1	/	.	/	/	/	/	/
C[C@@H]1CCCCO[C@@H](CN(C)C(=O)C2CCCCC2)[C@H](C)CN([C@@H](C)CO)C(=O)c2cc(NC(=O)Nc3ccc(F)cc3)ccc2O1	/	.	/	/	/	/	/
COc1ccc(S(=O)(=O)N(C)C[C@@H]2Oc3ccc(NC(=O)CCCN(C)C)cc3CC(=O)N([C@@H](C)CO)C[C@H]2C)cc1	/	.	/	/	/	/	/
O=C(Cc1ccccn1)N[C@@H]1CC[C@H](CCNC(=O)c2cc(Cl)cc(Cl)c2)O[C@@H]1CO	/	.	/	/	/	/	/
C[C@H](CO)N1C[C@H](C)[C@H](CN(C)C(=O)CN(C)C)Oc2cc(-c3ccccc3)ccc2S1(=O)=O	/	35	/	/	/	/	.
C#CCOCCOCCOCCNc1nc(N2CCN(C(=O)[C@H](CC(N)=O)n3cc(C(N)[C@H](C)CC)nn3)CC2)nc(N2CCN(C(=O)[C@H](CC(N)=O)n3cc(C(N)[C@@H](C)CC)nn3)CC2)n1 (stereo partly specified)	.	108	.	.	.	.	.
SMILES	NRP1-CendR mod	Yeast UUG start-1	MC4R ag barr	ARFGAP1 inh	ASAP1 inh	MC4R antag cAMP	Yeast UUG start-2
C#CCOCCOCCOCCNc1nc(N2CCN(C(=O)[C@H](CC(N)=O)n3cc(C(N)[C@@H](C)CC)nn3)CC2)nc(N2CCN(C(=O)[C@H](CCCCN)n3cc([C@@H](N)CC(N)=O)nn3)CC2)n1 (stereo partly specified)	.	.	.	.	.	.	/
Cc1cc(-n2c(C)cc(C(=O)CSc3nc4ccccc4c(=O)n3Cc3ccco3)c2C)no1	.	685	.	.	.	.	.
COCCn1c(SCC(=O)NC(=O)Cc2ccccc2)nc2ccccc2c1=O	.	.	.	.	.	.	/
Cc1cc(-n2c(C)cc(C(=O)CSc3nnnn3-c3ccccc3)c2C)no1	.	.	.	.	.	.	/
O=C(CSc1nc2ccccc2c(=O)n1Cc1ccco1)c1ccccc1	.	.	.	.	.	.	.
COCCn1c(SCC(=O)c2cc(C)n(C)c2C)nc2ccccc2c1=O	.	/	.	.	.	.	.
CCOC(=O)CSc1nc2ccccc2c(=O)n1Cc1ccco1	.	.	.	.	.	.	/
CC(C)(C)C(=O)COC(=O)c1ccc(O)cc1	.	387	.	.	.	.	.
O=C(COC(=O)Cc1ccc(Cl)cc1)Nc1ccccc1F	.	/	.	.	.	.	/
O=C(COC(=O)Cc1ccc(Cl)cc1)Nc1c(F)cccc1F	.	460	.	.	.	.	.
CC(C)c1ccc(CCNC(=O)c2ccc([N+](=O)[O-])cc2)cc1	.	406	.	.	.	.	.
